Assays:
Rattus norvegicus [1] = species on record: Rattus norvegicus; assay: Open TG-GATES - Regimen: Daily Repeat; assay type: toxicity, organism-based, Sprague-Dawley; set-up: regimen Daily Repeat, gender Male, age 6 weeks; settings: in vivo, po, route gavage; for LIVER: tissue Liver; for Hb / Neu: tissue Blood
Rattus norvegicus [2] = species on record: Rattus norvegicus; assay: Open TG-GATES - Regimen: Single; assay type: toxicity, organism-based, Sprague-Dawley; set-up: regimen Single, gender Male, age 6 weeks; settings: in vivo, po, route gavage
[3] = 0 mg/kg, 72 h, tissue Plasma, dose level Control, time 3 day
[4] = 0 mg/kg, […], dose level Control, time 7 day
[5] = 0 mg/kg, […], dose level Control, time 14 day
[6] = 0 mg/kg, […], dose level Control, time 28 day
[7] = 0 mg/kg, […], tissue Plasma, dose level Control, time 7 day
[8] = 0 mg/kg, […], tissue Plasma, dose level Control, time 14 day
[9] = 0 mg/kg, […], tissue Plasma, dose level Control, time 28 day
[10] = 10 mg/kg, 72 h, dose level Low, time 3 day
[11] = 10 mg/kg, 72 h, tissue Plasma, dose level Low, time 3 day
[12] = 10 mg/kg, […], dose level Low, time 7 day
[13] = 10 mg/kg, […], dose level Low, time 28 day
[14] = 10 mg/kg, […], tissue Plasma, dose level Low, time 7 day
[15] = 10 mg/kg, […], tissue Plasma, dose level Low, time 14 day
[16] = 10 mg/kg, […], tissue Plasma, dose level Low, time 28 day
[17] = 30 mg/kg, 72 h, dose level Middle, time 3 day
[18] = 30 mg/kg, 72 h, tissue Plasma, dose level Middle, time 3 day
[19] = 30 mg/kg, […], dose level Middle, time 7 day
[20] = 30 mg/kg, […], dose level Middle, time 28 day
[21] = 30 mg/kg, […], tissue Plasma, dose level Middle, time 7 day
[22] = 30 mg/kg, […], tissue Plasma, dose level Middle, time 14 day
[23] = 30 mg/kg, […], tissue Plasma, dose level Middle, time 28 day
[24] = 100 mg/kg, 72 h, dose level High, time 3 day
[25] = 100 mg/kg, 72 h, tissue Plasma, dose level High, time 3 day
[26] = 100 mg/kg, […], dose level High, time 7 day
[27] = 100 mg/kg, […], dose level High, time 14 day
[28] = 100 mg/kg, […], dose level High, time 28 day
[29] = 100 mg/kg, […], tissue Plasma, dose level High, time 7 day
[30] = 100 mg/kg, […], tissue Plasma, dose level High, time 14 day
[31] = 100 mg/kg, […], tissue Plasma, dose level High, time 28 day

Cn1c(=O)c2c(ncn2C)n(C)c1=O [CAFFEINE]
LIVER (Rattus norvegicus [1]; 0 mg/kg, 72 h, dose level Control, time 3 day): 11 g
BUN (Rattus norvegicus [1]; [3]): 16.6 mg/dL
Na (Rattus norvegicus [1]; [3]): 146.2 meq/L
PL (Rattus norvegicus [1]; [3]): 131.8 mg/dL
Hb (Rattus norvegicus [1]; [4]): 13.7 g/dL
Hb (Rattus norvegicus [1]; [5]): 14.1 g/dL
Hb (Rattus norvegicus [1]; [6]): 15.1 g/dL
Neu (Rattus norvegicus [1]; [6]): 14.8%
LIVER (Rattus norvegicus [1]; [4]): 12.4 g
LIVER (Rattus norvegicus [1]; [5]): 14.1 g
LIVER (Rattus norvegicus [1]; [6]): 16.5 g
BUN (Rattus norvegicus [1]; [7]): 18.2 mg/dL
Na (Rattus norvegicus [1]; [7]): 141 meq/L
PL (Rattus norvegicus [1]; [7]): 149.2 mg/dL
Na (Rattus norvegicus [1]; [8]): 141.8 meq/L
PL (Rattus norvegicus [1]; [8]): 151.4 mg/dL
BUN (Rattus norvegicus [1]; [9]): 19 mg/dL
Na (Rattus norvegicus [1]; [9]): 143 meq/L
PL (Rattus norvegicus [1]; [9]): 145 mg/dL
Hb (Rattus norvegicus [1]; [10]): 12.9 g/dL
LIVER (Rattus norvegicus [1]; [10]): 11 g
BUN (Rattus norvegicus [1]; [11]): 16.8 mg/dL
Na (Rattus norvegicus [1]; [11]): 146 meq/L
PL (Rattus norvegicus [1]; [11]): 143.6 mg/dL
Hb (Rattus norvegicus [1]; [12]): 13.5 g/dL
Hb (Rattus norvegicus [1]; 10 mg/kg, […], dose level Low, time 14 day): 14 g/dL
Hb (Rattus norvegicus [1]; [13]): 14.9 g/dL
Neu (Rattus norvegicus [1]; [13]): 12%
LIVER (Rattus norvegicus [1]; [12]): 12.1 g
LIVER (Rattus norvegicus [1]; [13]): 16.7 g
BUN (Rattus norvegicus [1]; [14]): 16.6 mg/dL
Na (Rattus norvegicus [1]; [14]): 142.4 meq/L
PL (Rattus norvegicus [1]; [14]): 141 mg/dL
BUN (Rattus norvegicus [1]; [15]): 19.2 mg/dL
Na (Rattus norvegicus [1]; [15]): 142.2 meq/L
PL (Rattus norvegicus [1]; [15]): 148.4 mg/dL
BUN (Rattus norvegicus [1]; [16]): 17.6 mg/dL
Na (Rattus norvegicus [1]; [16]): 143.6 meq/L
PL (Rattus norvegicus [1]; [16]): 153 mg/dL
Hb (Rattus norvegicus [1]; [17]): 13.7 g/dL
Neu (Rattus norvegicus [1]; [17]): 13.6%
LIVER (Rattus norvegicus [1]; [17]): 10 g
BUN (Rattus norvegicus [1]; [18]): 14.2 mg/dL
Na (Rattus norvegicus [1]; [18]): 146.2 meq/L
PL (Rattus norvegicus [1]; [18]): 140.4 mg/dL
Hb (Rattus norvegicus [1]; [19]): 14.1 g/dL
Hb (Rattus norvegicus [1]; 30 mg/kg, […], dose level Middle, time 14 day): 14.6 g/dL
Hb (Rattus norvegicus [1]; [20]): 15.1 g/dL
Neu (Rattus norvegicus [1]; [20]): 14.6%
LIVER (Rattus norvegicus [1]; [19]): 11 g
LIVER (Rattus norvegicus [1]; [20]): 15.5 g
BUN (Rattus norvegicus [1]; [21]): 16.4 mg/dL
Na (Rattus norvegicus [1]; [21]): 143.2 meq/L
PL (Rattus norvegicus [1]; [21]): 141 mg/dL
BUN (Rattus norvegicus [1]; [22]): 18.4 mg/dL
Na (Rattus norvegicus [1]; [22]): 143 meq/L
PL (Rattus norvegicus [1]; [22]): 155.4 mg/dL
BUN (Rattus norvegicus [1]; [23]): 16.4 mg/dL
Na (Rattus norvegicus [1]; [23]): 143 meq/L
PL (Rattus norvegicus [1]; [23]): 151.4 mg/dL
Hb (Rattus norvegicus [1]; [24]): 14.1 g/dL
LIVER (Rattus norvegicus [1]; [24]): 9.1 g
ALP (Rattus norvegicus [1]; [25]): 1109 IU/L
BUN (Rattus norvegicus [1]; [25]): 12.4 mg/dL
Na (Rattus norvegicus [1]; [25]): 145 meq/L
PL (Rattus norvegicus [1]; [25]): 131.8 mg/dL
Hb (Rattus norvegicus [1]; [26]): 14.5 g/dL
Hb (Rattus norvegicus [1]; [27]): 15.1 g/dL
Hb (Rattus norvegicus [1]; [28]): 15.9 g/dL
LIVER (Rattus norvegicus [1]; [26]): 9.8 g
LIVER (Rattus norvegicus [1]; [27]): 11.1 g
LIVER (Rattus norvegicus [1]; [28]): 11.3 g
Na (Rattus norvegicus [1]; [29]): 142.6 meq/L
PL (Rattus norvegicus [1]; [29]): 149.4 mg/dL
BUN (Rattus norvegicus [1]; [30]): 13.8 mg/dL
Na (Rattus norvegicus [1]; [30]): 143.4 meq/L
PL (Rattus norvegicus [1]; [30]): 149 mg/dL
BUN (Rattus norvegicus [1]; [31]): 14.2 mg/dL
Na (Rattus norvegicus [1]; [31]): 142.2 meq/L
PL (Rattus norvegicus [1]; [31]): 146.4 mg/dL

COc1cc2ncnc(Nc3ccc(F)c(Cl)c3)c2cc1OCCCN1CCOCC1 [GEFITINIB]
MCV (Rattus norvegicus [2]; 0 mg/kg, 3 h, tissue Blood, dose level Control): 64.9 fL
GLC (Rattus norvegicus [2]; 0 mg/kg, 3 h, tissue Plasma, dose level Control): 188.2 mg/dL
GLC (Rattus norvegicus [2]; 0 mg/kg, 9 h, tissue Plasma, dose level Control): 188.2 mg/dL
MCHC (Rattus norvegicus [2]; 0 mg/kg, 24 h, tissue Blood, dose level Control): 32.3%
Hb (Rattus norvegicus [2]; 200 mg/kg, 6 h, tissue Blood, dose level Low): 12.4 g/dL
MCV (Rattus norvegicus [2]; 200 mg/kg, 9 h, tissue Blood, dose level Low): 63.1 fL
Hb (Rattus norvegicus [2]; 600 mg/kg, 3 h, tissue Blood, dose level Middle): 12.4 g/dL
MCHC (Rattus norvegicus [2]; 600 mg/kg, 24 h, tissue Blood, dose level Middle): 32.3%
Plat (Rattus norvegicus [2]; 2000 mg/kg, 24 h, tissue Blood, dose level High): 126.5 x10_4/uL
BUN (Rattus norvegicus [2]; 2000 mg/kg, 24 h, tissue Plasma, dose level High): 22.9 mg/dL
